In PubChem BioAssay AID651999 (Sanford-Burnham Center for Chemical Genomics, 2013) one finds inhibition data, which are given here for 100 compounds.

Chains of the proteins cited; added tags and fusions are not shown.
UniProt Q92905, whole entry, looked up: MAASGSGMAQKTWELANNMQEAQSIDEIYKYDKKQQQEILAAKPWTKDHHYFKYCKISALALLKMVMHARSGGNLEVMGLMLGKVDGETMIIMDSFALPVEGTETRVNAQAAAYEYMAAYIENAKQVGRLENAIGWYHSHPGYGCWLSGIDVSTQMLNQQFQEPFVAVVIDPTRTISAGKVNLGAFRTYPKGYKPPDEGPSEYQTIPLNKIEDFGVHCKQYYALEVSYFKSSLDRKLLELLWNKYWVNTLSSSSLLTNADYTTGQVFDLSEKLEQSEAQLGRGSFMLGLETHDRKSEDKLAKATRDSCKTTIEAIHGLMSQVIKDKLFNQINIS

This is a selection; strong and weak results do not stand in their true shares. Calls of active or inactive are those of the source.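 How the source made its calls: active means pattern-corrected inhibition above about 35%, with an unprinted fluorescence ratio check between 0.5 and 1.5 (limit read from the data, passing the limit was not always enough); inactive means the rest.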

The target in the experiment is COP9 signalosome complex subunit 5 (Homo sapiens) (UniProt Q92905). Description: CSN5 deneddylase inhibitors on cullin-RING ligase – biochemical, fluorescence polarization, uHTS, primary screen (AID 651999).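 Further: 0% = enzyme with substrate and 100% = substrate without enzyme.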 The conditions noted are these: Purified CSN, SCF-Nedd8-OG deneddylation, at 12.5 µM, hits give high values. In outline: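 Assay system: HEK293T-derived human Csn5 enzyme; quantity: 0.24 nM enzyme; medium: Tris/NaCl/DTT buffer, pH 7.5; also added: substrate SCFSkp2-Nedd8OG, 10 nM; doses: 12.5 µM compound; schedule: 90 min reaction at room temperature; signal: FP; read-out: % inhibition of substrate cleavage by Csn5; benchmarks: substrate-only high control, full reaction low control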
On the technique in general: In fluorescence polarisation assays a small probe gives low polarisation when free and higher when bound to something large.
Usually inhibition stands for the relative decrease from the control value, in per cent. Take `Nc1cccc2ccc([As](=O)(O)O)cc12`: the inhibition was inactive: -32%.

As to `CCN(N=Nc1nonc1N)c1nonc1N`, the inhibition was inactive: 1.46%. For the compound `O=P(Nc1nc2ccc(Cl)cc2s1)(c1ccccc1)c1ccccc1`, the inhibition is inactive: 0.13%.

For the compound `CN(C)P(=O)(N(C)C)n1c(Nc2ccccc2)nnc1-c1ccccc1`, the inhibition is inactive: 1.69%. With `CC(=O)Nc1ccc([As](=O)(O)O)cc1`, the inhibition is inactive: -0.02%.

Turning to `O=C(O)c1ccccc1[As](=O)(O)O`, the inhibition is inactive: -2.44%.

With `CCCC1OP(N)(=O)OCC1CC` (stereo not given), the inhibition was inactive: -5.31%. Turning to `Cc1cc(SC(NC(=O)c2ccc(F)cc2)C(Cl)(Cl)Cl)ncn1` (stereo not given), the inhibition is inactive: 2.17%.

In the case of `CCOP(=O)(Nc1ccccc1)OCC`, the inhibition is inactive: 0.5%. Next, `Cc1ccc(NP(=O)(Oc2ccccc2F)Oc2ccccc2F)nc1`: inactive: -3.55%; `CN(C(=O)Cc1ccc(Cl)c(Cl)c1)[C@H]1CCCC[C@@H]1N1CCCC1`: inactive: -6.42%; `Oc1ccccc1CNc1ccccn1`: inactive: 1.86%.

As to `O=C(NC(Sc1ccncn1)C(Cl)(Cl)Cl)c1ccccc1` (stereo not given), the inhibition is inactive: 4.55%. Next, `Nc1cc(N)c2nonc2c1[N+](=O)[O-]`: inactive: 4.81%. In the case of `CC(C)CC(=O)NC(Sc1ccc(Cl)cc1)C(Cl)(Cl)Cl` (stereo not given), the inhibition was inactive: 3.57%. For `O=[N+]([O-])C1C(O)C(O)C([N+](=O)[O-])C(O)C1O` (stereo not given), the inhibition is inactive: -2.79%. In the case of `CN(C(=O)Cc1ccc(Cl)c(Cl)c1)[C@H]1CCCC[C@H]1N1CCCC1`, the inhibition was inactive: -1.53%. Consider `Cc1ccc(N/C(=N/P(=O)(N2CCOCC2)N2CCOCC2)N2CCOCC2)cc1`, for which the inhibition is inactive: -5.47%. Consider `NC(=O)c1cc([N+](=O)[O-])cc([N+](=O)[O-])c1N`, for which the inhibition was inactive: -1.98%. As to `CN1CCCC(OC(=O)C(c2ccccc2)c2ccccc2)C1` (stereo not given), the inhibition was inactive: -3.81%.

In the case of `Clc1ccc(Cl)c(NC2=NCC(CBr)S2)c1` (stereo not given), the inhibition is inactive: -24.6%. Next, `COc1ccccc1OP(=O)(Nc1ccc(C)cn1)Oc1ccccc1OC`: inactive: 3.47%.

Regarding `Cc1ccc(OP(=O)(Nc2nccs2)Oc2ccc(C)cc2)cc1`, the inhibition was inactive: -6.31%.

Turning to `CCN(/C(=N/P(=O)(N1CCOCC1)N1CCOCC1)N1CCOCC1)c1ccc(OC)cc1`, the inhibition is inactive: 3.42%. The figure for `Nc1ccc([As](=O)(O)c2ccc(N)cc2)cc1` is inactive: -4.19%; for `C[N+]1=C2C=CC=CC=C2SC12C([N+](=O)[O-])=CC([N+](=O)[O-])=C[C-]2[N+](=O)[O-]` (stereo not given) it is inactive: 48.6%; for `CC1CCN(C(=O)Oc2c(Cl)cc(Cl)c3cccnc23)CC1` it is inactive: -3.9%. On to `c1cc(-c2nn[nH]n2)ccc1-c1nn[nH]n1`, for which the inhibition was inactive: -6.42%. Take `CC(C)c1nc(Nc2ccccc2)n(P(=O)(N(C)C)N(C)C)n1`: the inhibition was inactive: 3.17%.

For the compound `CC(C)=N/N=C(\N)N[N+](=O)[O-]`, the inhibition was inactive: 4.86%. On to `CN(C)C(=O)OCCc1n(C)cc[n+]1C`, for which the inhibition was inactive: 2.74%. The figure for `COc1ccc(C2=NCC(CBr)S2)cc1` (stereo not given) is inactive: -1.65%; for `Cc1ccc(NP(=O)(Oc2ccccc2)Oc2ccccc2)nc1` it is inactive: 8.21%.

In the case of `CCc1nc2c(n1)c1c(non1O)c1c2no[n+]1[O-]`, the inhibition was inactive: 3.42%. In the case of `O=[N+]([O-])c1cc([N+](=O)[O-])c(CCNc2ccccc2)c([N+](=O)[O-])c1`, the inhibition was inactive: -2.64%. As to `O=[N+]([O-])c1cccc2n[nH]nc12`, the inhibition was inactive: -0.42%. For the compound `CC(=O)N1C2C3N(C(C)=O)C1C1N(C(C)=O)C(C(N1C(C)=O)N3C(C)=O)N2C(C)=O`, the inhibition is inactive: -5.55%.

As to `O=[N+]([O-])c1ncn(CCn2ncnc2[N+](=O)[O-])n1`, the inhibition was inactive: 5%. Next, `CC(C)(C)C(=O)NC(Sc1ccncn1)C(Cl)(Cl)Cl` (stereo not given): inactive: 2%; `O=C(O)CNc1ccc([As](=O)(O)O)cc1`: inactive: 2.41%. Turning to `COC(=O)C1(C)COP(=O)(Nc2ccccc2)OC1` (stereo not given), the inhibition was inactive: 6.55%. On to `O=[N+]([O-])c1cccc(NC2=NCC(CBr)S2)c1` (stereo not given), for which the inhibition was inactive: -1.52%. Take `O=P1(N(CCCl)CCCl)OCCCS1` (stereo not given): the inhibition is inactive: 0.71%.

On to `O=C(Nc1cc([As](=O)(O)O)ccc1O)c1ccccc1`, for which the inhibition is inactive: 0.67%. With `O=[As](O)(c1ccccc1)c1ccc(O)cc1`, the inhibition is inactive: 4.31%.

Regarding `O=[N+]([O-])c1ccc(O)c(/C=N/Nc2ccc([N+](=O)[O-])cc2[N+](=O)[O-])c1`, the inhibition was inactive: 0.07%. For the compound `O=[N+]([O-])c1ncn(CCn2cnc([N+](=O)[O-])n2)n1`, the inhibition is inactive: 1.4%.

As for `CC(=O)NC(SC(=S)N(C)C)C(Cl)(Cl)Cl` (stereo not given), the inhibition was inactive: -14.2%. As for `O=C(OC1CN2CCC1CC2)c1cccc(Cl)c1` (stereo not given), the inhibition is inactive: 4.13%. Consider `C(Cc1nn[nH]n1)Cc1nn[nH]n1`, for which the inhibition was inactive: -8.59%. Take `Nc1ccc([As](=O)(O)c2ccc([N+](=O)[O-])cc2)cc1`: the inhibition was inactive: -3.07%.

In the case of `O=P(Nc1ccccn1)(c1ccc(Br)cc1)c1ccc(Br)cc1`, the inhibition was inactive: 2.93%. Consider `CN(C)C1(CNC(=O)c2ccc(Cl)c(S(N)(=O)=O)c2)CCCCC1`, for which the inhibition is inactive: -2.3%. `COc1ccc(N)c([N+](=O)[O-])c1[N+](=O)[O-]`: the inhibition is inactive: 8.26%. Next, `Nc1ccc(CCCCOc2ccccc2)cc1`: inactive: 3.63%; `O=P(Nc1nc2ccccc2s1)(c1ccccc1)c1ccccc1`: inactive: 2.49%; `C[C@H]1OP(=O)(Oc2ccccc2)[C@H](O)[C@H](O)[C@H]1N=[N+]=[N-]` (stereo not given in full): inactive: 0.12%. Take `CC(C)C(=O)NC(Sc1ccccc1)C(Cl)(Cl)Cl` (stereo not given): the inhibition was inactive: 2.04%. For the compound `O=P(Nc1nccs1)(c1ccccc1)c1ccccc1`, the inhibition was inactive: -0.27%. As for `c1nnnn1CCn1cnnn1`, the inhibition is inactive: -3.15%. As to `Cc1ccccc1CN(C)C(=O)COC(=O)C(O)(c1ccccc1)c1ccccc1`, the inhibition was inactive: 2.61%. Next, `C[C@H]1OP(=O)(Oc2ccccc2)C[C@@H]2O[C@@H]21` (stereo not given in full): inactive: 0.07%; `C[C@@H]1C=CCP(=O)(Oc2ccccc2)O1` (stereo not given in full): inactive: -0.15%. Next, `CC(=O)c1ccc(N2CC2c2ccncc2)cc1` (stereo not given): inactive: 0.28%; `N#C/C(=C\c1ccc(N(CCBr)CCBr)cc1)C(N)=O`: inactive: -1.78%; `COC(=O)C1(C)COP(=O)(NCc2ccccc2)OC1` (stereo not given): inactive: 0.9%. With `CC(=O)Nc1ccc([As](=O)(O)O)c(O)c1`, the inhibition was inactive: 0.96%. For the compound `CC(=O)Nc1ccc(Oc2c([N+](=O)[O-])cc([N+](=O)[O-])cc2[N+](=O)[O-])cc1`, the inhibition was inactive: 3.59%. `O=P1(Nc2nc3ccc(Cl)cc3s2)COc2ccccc2O1` (stereo not given): the inhibition is inactive: -0.5%. With `CCOc1ccc(C2=NCC(CBr)S2)cc1` (stereo not given), the inhibition is inactive: 5.12%. The figure for `CC(C)(C)C(=O)NC(Sc1ccccc1)C(Cl)(Cl)Cl` (stereo not given) is inactive: -1.49%; for `CCc1cc(O)c([N+](=O)[O-])c(C)c1[N+](=O)[O-]` it is inactive: -2.62%; for `O=C(OC1CN2CCC1CC2)c1ccccc1` (stereo not given) it is inactive: 1.04%. For the compound `CCC(=O)N1C2C3N(C(=O)CC)C1C1N(C(=O)CC)C(C(N1C(=O)CC)N3C(=O)CC)N2C(=O)CC`, the inhibition was inactive: -0.35%. `COC(=O)c1cc2c(s1)N=C(c1ccccc1)N(C)P2(=O)N1CCOCC1` (stereo not given): the inhibition was inactive: -0.88%.

Turning to `Cc1ccc(OP(=O)(Nc2ccccn2)Oc2ccc(C)cc2)cc1`, the inhibition is inactive: -5.26%.

`CC(=O)NC(SC(=S)N(CC(C)C)CC(C)C)C(Cl)(Cl)Cl` (stereo not given): the inhibition is inactive: -0.58%. On to `CC(NC(=O)COC(=O)C(O)(c1ccccc1)c1ccccc1)c1ccccc1` (stereo not given), for which the inhibition is inactive: -2.75%. In the case of `Cc1ccccc1OP(=O)(Nc1ccccn1)Oc1ccccc1C`, the inhibition is inactive: 0.21%. With `O=c1c2cc([N+](=O)[O-])ccc2[nH]c2c([N+](=O)[O-])cc([N+](=O)[O-])cc12`, the inhibition was inactive: 8.92%.

For the compound `CN(C)C(=O)Oc1noc2ccccc12`, the inhibition was inactive: 2.02%.

As for `c1ccc(-c2nn[nH]n2)c(-c2nn[nH]n2)c1`, the inhibition was inactive: -12.8%. Turning to `Cc1ccc(NP(=O)(Oc2cccc(C)c2)Oc2cccc(C)c2)nc1`, the inhibition was inactive: -2.08%. `CCNC(=S)/N=C(\N)N[N+](=O)[O-]`: the inhibition was inactive: 2.63%.

As for `O=C(NC1CCS(=O)(=O)C1)NP(=S)(Oc1ccccc1)Oc1ccccc1` (stereo not given), the inhibition was inactive: -15.2%. The figure for `O=P1(N(CCCl)CCCl)OCCC2CCCCN21` (stereo not given) is inactive: -1.18%; for `NC(=O)Nc1ccc([As](=O)(O)O)cc1` it is inactive: 0.87%; for `N#CCCN(C(=O)COC(=O)C(O)(c1ccccc1)c1ccccc1)c1ccc(F)cc1` it is inactive: 1.82%. In the case of `CN(C(=O)Cc1ccccc1)[C@@H]1CC[C@]2(CCCO2)C[C@H]1N1CCCC1`, the inhibition is inactive: 0.88%.

For `CCOP1(=S)c2c(C)nn(CCC#N)c2N=C(c2ccc(F)cc2)N1C` (stereo not given), the inhibition was inactive: 4.36%. Turning to `O=[N+]([O-])c1ccc2c(c1)nnn2O`, the inhibition is inactive: -6.46%. For `CN(C)C(=O)c1cc([N+](=O)[O-])cc2c1-c1c(cc([N+](=O)[O-])cc1[N+](=O)[O-])C2=O`, the inhibition is inactive: -1.18%. As to `CN(C(=O)Cc1ccc(Cl)c(Cl)c1)[C@H]1CC[C@@]2(CCCO2)C[C@@H]1N1CCCC1`, the inhibition is inactive: 0.05%.

For the compound `CCOP1(=S)c2c(C)nn(CCC#N)c2N=C(c2ccccc2F)N1C` (stereo not given), the inhibition was inactive: 0.77%. For the compound `O=P(Nc1nccs1)(Oc1ccccc1)Oc1ccccc1`, the inhibition was inactive: 5.1%. Next, `O=P(Nc1nccs1)(c1ccccc1)c1nc2ccccc2s1` (stereo not given): inactive: 7.55%; `CS(=O)(=O)c1cc([N+](=O)[O-])c2no[n+]([O-])c2c1`: inactive: -4.21%. Next, `Nc1ccccc1[As](=O)(O)c1ccccc1`: inactive: -1.84%; `O=C(O)COc1ccc([As](=O)(O)O)cc1[N+](=O)[O-]`: inactive: -1.14%; `Nc1cccc2c([As](=O)(O)O)cccc12`: inactive: 2.53%.
